In patent US20060099220A1, “Antibodies against and methods for producing vaccines for respiratory syncytial virus” (MEDIMMUNE, INC., priority 2004, published 2006):

Target: Numax™ (Homo sapiens, UniProt P01834+P01857)
Assay: Biacore kinetic analysis of F peptides on captured Numax™
Type: binding
Details: F peptide 100 nM over captured Numax™, Biacore 3000
Experimental: All studies were performed using Sensor Chip CM5 (Biacore AB, Uppsala, Sweden) which contains a carboxymethyl (CM) dextran matrix and a Biacore® 3000 surface plasmon resonance (SPR) biosensor (Biacore AB, Uppsala, Sweden).
Numax™ was captured via a high-affinity interaction between the Fc portion of Numax™ and a goat anti-human IgG(Fc) (KPL, Inc., Gaithersburg, Md.). Goat anti-human IgG(Fc) was covalently attached to the CM dextran matrix using amine coupling chemistry. Two anti-human IgG(Fc)-specific surfaces were created. Numax™ was diluted to 10.9 μg/mL with HBS-EP and flowed for 1 min. across one of the anti-human IgG (Fc) surfaces at a flow rate of 5 μL/min. The other anti-human IgG(Fc) surface was used as a reference surface. F peptide was prepared by dilution in HBS-EP (0.01 M Hepes pH 7.4, 0.15 M NaCl, 3 mM EDTA, 0.005% surfactant P20) to a final concentration of 100 nM. F peptide was injected for 1 min. in a serial-flow manner across the reference surface and the Numax™-specific surface. Dissociation of bound F peptide was monitored for 2 min in the presence of HBS-EP. After this dissociation period, Numax™ and F peptide were removed with a 30-sec injection of 10 mM glycine pH 1.7 (Biacore AB, Uppsala, Sweden). Because of the removal of Numax™, it was necessary to create a new Numax™-specific surface prior to the injection of each F peptide.

CC[C@H](C)[C@H](NC(=O)[C@H](CC(C)C)NC(=O)[C@H](CO)NC(=O)[C@H](CC(C)C)NC(=O)[C@H](CC(C)C)NC(=O)[C@H](CCC(=O)O)NC(=O)[C@H](CO)NC(=O)[C@@H](N)CC(N)=O)C(=O)N[C@@H](CC(N)=O)C(=O)N[C@@H](CC(=O)O)C(=O)N[C@@H](CCSC)C(=O)N1CCC[C@H]1C(=O)N[C@H](C(=O)N[C@H](C(=O)N[C@@H](CC(N)=O)C(=O)N[C@@H](CC(=O)O)C(=O)N[C@@H](CCC(N)=O)C(=O)N[C@@H](CCCCN)C(=O)N[C@@H](CCCCN)C(=O)N[C@@H](CC(C)C)C(=O)N[C@@H](CCSC)C(=O)N[C@@H](CO)C(=O)N[C@@H](CC(N)=O)C(=O)N[C@@H](CC(N)=O)C(=O)N[C@@H](CS)C(N)=O)[C@@H](C)O)[C@@H](C)CC [SEQ ID NO: 27]
ka: 2.70E+05
kd: 5.50E−03
Kd (KD): 20.4 nM
